From patent US12545653B2, “Compound as PPAR agonist and application thereof” (USA Elixiria Biotech Inc., priority 2019, dated 2026)

Chains of the proteins cited; added tags and fusions are not shown.
UniProt P37231, whole entry: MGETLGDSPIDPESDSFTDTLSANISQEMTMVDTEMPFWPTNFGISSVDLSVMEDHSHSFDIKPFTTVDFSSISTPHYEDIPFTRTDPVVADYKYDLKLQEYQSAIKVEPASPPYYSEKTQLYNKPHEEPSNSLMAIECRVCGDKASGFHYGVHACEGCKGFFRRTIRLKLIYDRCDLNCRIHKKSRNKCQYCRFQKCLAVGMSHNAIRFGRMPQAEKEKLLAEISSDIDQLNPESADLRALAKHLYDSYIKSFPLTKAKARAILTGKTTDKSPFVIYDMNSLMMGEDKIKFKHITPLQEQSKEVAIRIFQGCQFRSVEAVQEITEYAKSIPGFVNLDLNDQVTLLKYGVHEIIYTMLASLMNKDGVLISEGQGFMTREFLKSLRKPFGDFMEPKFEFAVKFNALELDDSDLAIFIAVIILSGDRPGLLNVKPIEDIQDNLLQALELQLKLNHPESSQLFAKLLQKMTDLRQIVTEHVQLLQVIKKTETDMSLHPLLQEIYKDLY

Tests used:
PPARγ = PPARγ (Homo sapiens, UniProt P37231); test: In vitro transcriptional activity of PPARγ gene (PPRE-luciferase reporter, HEK 293 T cells); assay type: cell-based; conditions: read-out: EC50 of PPARγ gene activation; HEK 293 T cells transfected with PPARγ expression and PPRE-luc plasmids, 21 hours
klotho gene = test: In vivo brain transcriptional activity of klotho gene (RT-PCR of brain mRNA); parameters: species or system mouse; conditions: 10 mg/kg body weight/day tail vein, after 10 days of continuous injection

## CCc1ccc(CCCC/C=C/c2ccc3c(c2)C(=O)CC3)cc1
PPARγ
  EC50: 5.8 µM
Klotho gene
  mRNA level of klotho gene in the brain of the mouse relative to vehicle control group: more than twice
